One data set relates to GP2d cells (KRAS G12D). Kind of data set: Cellular Proliferation Assay in GP2d Cells (KRAS G12D), CellTiter-Glo. As to conditions: read-out: GP2d IC50, 72 hours.
In another data set the test system is SW620 cells (KRAS G12V). Briefly: Cellular proliferation assay in SW620 cells (KRAS G12V), CTG cell viability. As to conditions: read-out: SW620 IC50, 3 days.
A further data set deals with p-ERK in AGS cells (Homo sapiens, UniProt P01116, G12D). Briefly: p-ERK Assay in AGS cells. As to conditions: read-out: IC50 (p-ERK), 3 h at 37 °C.
Data set [1] is described as follows: Mouse Pharmacokinetic Study. As to conditions: single, fed; for T1/2: terminal half-life.

By UniProt entry, the sequences of proteins in these tests, tags left out. Chains listed by the source or under a name are the forms on record and can include a tag or linker. Residues count along the entry.
UniProt P01116, 1-188 with tags or gaps G12D: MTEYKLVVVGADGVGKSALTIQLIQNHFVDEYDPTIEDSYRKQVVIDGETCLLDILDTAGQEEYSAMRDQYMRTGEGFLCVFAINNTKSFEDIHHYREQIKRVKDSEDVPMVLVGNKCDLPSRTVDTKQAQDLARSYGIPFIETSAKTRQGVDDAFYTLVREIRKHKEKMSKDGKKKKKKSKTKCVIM

What is called IC50 is the concentration needed to halve the response being measured. With `C#Cc1c(F)ccc2cc(O)cc(-c3ncc4c(N(C)[C@@H]5C[C@H]5F)nc(OC[C@@]56CC(=C)CN5C[C@H]5C[C@H]56)nc4c3F)c12`, the IC50 was 361 nM in the data set on GP2d cells (KRAS G12D), 177 nM in the data set on SW620 cells (KRAS G12V) and 213 nM at p-ERK in AGS cells.
Take `C#Cc1c(F)ccc2cc(O)cc(-c3ncc4c(N5CCCCCC5)nc(OCC56CCCN5C[C@H]5C[C@H]56)nc4c3F)c12` (some centres unmarked): the IC50 worked out at 264 nM in the data set on GP2d cells (KRAS G12D), 408 nM in the data set on SW620 cells (KRAS G12V) and 99 nM at p-ERK in AGS cells.
By Vss is commonly meant the apparent volume that relates the amount in the body to the concentration in plasma or blood. In general, Cmax refers to the maximum level reached in the sampled fluid or tissue. On to `C#Cc1c(F)ccc2cc(O)cc(-c3ncc4c(N5CCCOCC5)nc(OCC56CCCN5C[C@H]5C[C@H]56)nc4c3F)c12` (some centres unmarked), for which, in the data set with GP2d cells (KRAS G12D), the IC50 came out at 63 nM. In addition, in the data set with SW620 cells (KRAS G12V), the half-inhibitory concentration (IC50) worked out at 52 nM. The 50% inhibitory concentration (IC50) on p-ERK in AGS cells was 13 nM. Moreover, in data set [1] (IV 2 mpk, plasma), the AUCinf amounted to 2460 ng·h/mL, the AUClast is 2460 ng·h/mL, the MRTinf was found to be 0.491 h and the distribution volume (Vss) was 0.399 L/kg. Further, in data set [1] (IV 2 mpk, plasma), the T1/2 was 1.00 h. The compound also displayed a F % in data set [1] (PO 5 mpk) of 3.5%. In data set [1] (PO 5 mpk, plasma), the AUCinf worked out at 213 ng·h/mL, the AUClast was 204 ng·h/mL, the peak concentration (Cmax) is listed as 350 ng/mL and the MRTinf was 2.17 h. This compound showed a T1/2 in data set [1] (PO 5 mpk, plasma) of 2.34 h.

The record behind these values is patent US20260382633A1, “KRAS INHIBITORS” (published 2026).
